miR-21 reporter – miR-21 reporter, rising signal | HeLa miR-21 FLuc reporter, luciferase, 48 h | Potency, µM (highest dose often 38.3 µM), for inactives: at the top dose reporter change, positive = more light | 340,000 tested, under 10 active | AID 2288; active = well fitted rising curve with a large enough effect; inconclusive = small, poorly fitted or top-dose-only effect; inactive = no such curve, though single readings can be large or run the other way;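 further: % of control where 0% means no effect; miR-21 action dims this reporter so a rising signal means less miR-21 action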
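Luminescence from a firefly luciferase reporter carrying a miR-21 binding site downstream, stably expressed under a CMV promoter in HeLa cells that make miR-21 endogenously, reports miRNA modulation after 48 h compound exposure up to approximately 40uM final.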
G9a inh – blocks human histone lysine methyltransferase G9a. Potency, µM (doses to about 102 µM), for inactives: top-dose activity, negative = inhibition, actives largely listed as inhibitors. G9a H3K9 monomethylation, AlphaScreen, 2 h. 350,000 tested, 8.8% active. Q96KQ7; further: potency means the concentration at half of the fitted maximal effect; on the % scale 0 is the no-effect control and ±100 the full control effect; nearly all actives have a fitted effect of over 75% in size
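Step 1: enzyme (final 20 nM) with compound, 15 min RT. Step 2: substrate peptide 500 nM and SAM 20 uM, 2 h RT. Step 3: anti-H3K9me1 antibody and AlphaScreen beads, 10 min, then plate read.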
Sfp inh – blocks B. subtilis Sfp PPTase activity; Q9F4F7; Biochemical Sfp PPTase activity, qHTS; Potency, µM, inactives show max response, negative = inhibition, hits mostly inhibitors; 310,000 tested, 3.5% active; active means well fitted inhibition curve with a large enough effect; inconclusive means small, poorly fitted or top-dose-only effect, or another doubt; inactive means no such curve, though single readings can be large or run the other way;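 further: the enzyme is Sfp with the accession as filed and its product quenches rhodamine fluorescence; potency means the concentration at half of the fitted maximal effect; 0% = enzyme reaction without inhibitor and -100% = no enzyme wells; top concentration of the series not given in the record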
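After 15 min at room temperature with compound, 15 nM Sfp received 5 uM rhodamine-CoA plus 12.5 uM BHQ-2-ybbR (50 mM Hepes pH 7.6, 10 mM MgCl2). Rate came from the fluorescence difference over 30 min, ex 525/em 598 nm.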
ALDH1A1 inh – ALDH1A1 (human) enzyme inhibition; 220,000 tested, 7.3% active; Potency, µM (doses to about 75.3 µM), for inactives: at the top dose activity, negative = inhibition, usual class: inhibitors; P00352; Purified ALDH1A1, NADH fluorescence, propionaldehyde substrate; AID 1030; active means well fitted inhibition curve with a large enough effect, not every such curve was filed as active; inconclusive means small, poorly fitted or top-dose-only effect, or another doubt; inactive means no such curve, though single readings can be large or run the other way;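 further: potency means the concentration at half of the fitted maximal effect; plate controls were no enzyme wells and a reference inhibitor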
LMNA splice mod – LMNA splicing modulation | HeLa LMNA splicing GFP/RFP minigene ratio, 48 h | Potency, µM (top dose mostly 46.1 µM), for the others: top-dose ratio change, negative = inhibition, hits mostly inhibitors | 200,000 tested, 0.01% active | AID 1487; active means well fitted inhibition curve with a large enough effect in the signal ratio, with a control signal flat, not every such curve was filed as active; inconclusive means small, poorly fitted or top-dose-only effect, or effect the other way, or a change in a side signal; the % refers to the signal ratio; further: potency means the concentration at half of the fitted maximal effect; on the % scale 0 is the no-effect control and ±100 the full control effect
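S3 HeLa cells stably expressing lamin A-EGFP splicing minigene plus DsRed2, 600 cells/well, 48 h compound exposure at 37C. Laser-scanning cytometry; analysed as GFP (500-530 nm)/RFP (575-640 nm) total intensity ratio; 0.5% DMSO vehicle.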
KDM4E inh – JMJD2E (human) inhibition | Potency, µM (titrated, usually from 57.1 µM), without a hit: at the highest dose activity change, negative = inhibition, most hits filed as inhibitors | 230,000 tested, 1.6% active | AID 2147 | JMJD2E catalytic domain, FDH-coupled NADH fluorescence (FDH is formaldehyde dehydrogenase) | B2RXH2; active means well fitted inhibition curve with a large enough effect, not every such curve was filed as active; inconclusive means small, poorly fitted or top-dose-only effect, or another doubt; inactive means no such curve, though single readings can be large or run the other way;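 further: potency means the concentration at half of the fitted maximal effect; 0% = wells with enzyme and -100% = buffer wells without enzyme; nearly all actives have a fitted effect of over 50% in size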
Starred values were filed as active, the others as inactive; ? = inconclusive; · = no result given; [ ] = another dose, or the depositor's remark. Sampled rows, rich in hits. Any-hit rate of the full collection: about 13%. Unless noted, the call rests on the fitted dose curve; in most records, active means well fitted curve in the direction sought with a large enough effect; inconclusive means small, poorly fitted or top-dose-only effect, or another doubt; inactive means no such curve, though single readings can be large; an effect the other way counts as inactive or inconclusive.

item | canonical_smiles | miR-21 reporter | G9a inh | Sfp inh
1 | COC(=O)c1ccccc1-c1ccc(/C=C2\C(=O)N(c3ccccc3)N=C2c2ccccc2)o1 | 0% | 7.1µM* | -1%
2 | COc1ccc(-c2ccc(C(=O)O)o2)c([N+](=O)[O-])c1 | -4% | 56µM* | ?
3 | COc1ccc(-c2ccc(/C=C3\C(=O)N(c4ccccc4)N=C3c3ccccc3)o2)c([N+](=O)[O-])c1 | -4% | 7.1µM* | 13%
4 | COc1ccc(-c2ccc(/C=C3/C(=N)N4C(C)=CSC4=NC3=O)o2)c([N+](=O)[O-])c1 | -6% | 7.1µM* | 13%
5 | CC(C)c1ccc(/C=N/NC(=O)c2nnn(-c3nonc3N)c2CN2CCOCC2)cc1 | 0% | ? | -1%
6 | CCN(CC)S(=O)(=O)c1ccc(OCC(=O)NC(=O)Cc2ccccc2)c([N+](=O)[O-])c1 | · | 13%[12.7 µM] | ·
7 | CNc1ncncc1-c1ccc(C(=O)N(C)C)cc1 | · | · | -22%
8 | CC1CC(C)CN(CCC(=O)Nc2ccc(Br)cc2)C1 (stereo not drawn) | -10% | ? | 7%
9 | Cn1c(=O)c2cc(C(=O)N3CCN(c4ccc(Cl)cc4)CC3)sc2c2ccccc21 | -1% | 5%[59 µM] | ·
10 | O=C(NNS(=O)(=O)c1ccc2ccccc2c1)C1CCN(Cc2ccccc2)CC1 | -3% | -7% | 8%
11 | O=S(=O)(NC1CCN(Cc2ccccc2)CC1)c1ccc2ccccc2c1 | -2% | -27% | -1%
12 | Cc1occc1C(=O)N/N=C/c1ccccc1[N+](=O)[O-] | -54% | ? | ?

item | ALDH1A1 inh | LMNA splice mod | KDM4E inh
1 | 9% | 7% | 3%
2 | ? | · | ?
3 | 2% | 3% | 3%
4 | 0% | -27% | -3%
5 | · | · | ·
6 | · | · | ·
7 | ? | 15% | ?
8 | · | · | ·
9 | · | · | ·
10 | -1% | 5% | -5%
11 | 22µM* | -16%[46 µM] | -8%
12 | · | · | 5%

Rewritten field by field: part of the list above.
11) O=S(=O)(NC1CCN(Cc2ccccc2)CC1)c1ccc2ccccc2c1
  miR-21 reporter: -2%
  G9a inh: -27%
  Sfp inh: -1%
  ALDH1A1 inh: 22µM*
  LMNA splice mod: -16%[46 µM]
  KDM4E inh: -8%

5) CC(C)c1ccc(/C=N/NC(=O)c2nnn(-c3nonc3N)c2CN2CCOCC2)cc1
  miR-21 reporter: 0%
  G9a inh: ?
  Sfp inh: -1%
  ALDH1A1 inh: ·
  LMNA splice mod: ·
  KDM4E inh: ·

2) COc1ccc(-c2ccc(C(=O)O)o2)c([N+](=O)[O-])c1
  miR-21 reporter: -4%
  G9a inh: 56µM*
  Sfp inh: ?
  ALDH1A1 inh: ?
  LMNA splice mod: ·
  KDM4E inh: ?

The listing continues:
item | canonical_smiles | miR-21 reporter | G9a inh | Sfp inh
13 | CCOC(=O)c1c(NC(=O)CN2CCN(C(=O)c3ccco3)CC2)sc(C)c1C | -6% | 12% | 0%
14 | CCc1c(C)sc(NC(=O)Cc2ccccc2C)c1C(=O)N1CCOCC1 | 2% | 35µM* | -10%
15 | N#Cc1c(NC(=O)CN2CCN(C(=O)c3ccco3)CC2)sc2c1CCCCC2 | -7% | 13%[59 µM] | -3%
16 | Cc1ccccc1CC(=O)Nc1sc(C(C)C)cc1C(=O)N1CCOCC1 | -2% | 18% | -17%
17 | CCc1c(C)sc(NC(=O)CN2CCN(C(=O)c3ccco3)CC2)c1C(=O)OC | 15% | 79µM* | -10%
18 | Cc1cc(OC(C)C(=O)N2CCN(c3ccc(F)cc3)CC2)c2c(C)cc(=O)oc2c1 (stereo not drawn) | -1% | 14%[59 µM] | 8%
19 | CCOC(=O)C(C#N)=C1CCN(Cc2ccccc2)CC1 | -13% | ? | 11%
20 | C=C(C#N)C(=O)OCC | · | · | ·
21 | CCOC(=O)C(C#N)=C(c1ccccc1)c1ccccc1 | · | 3%[12.7 µM] | 7%
22 | CCOC(=O)/C(C#N)=C1\SS/C(=C(/C#N)C(=O)OCC)S1 | -27% | 1.6µM* | 10µM*
23 | COC(=O)CCN(C)CCC(=O)OC | -2% | -3%[2.33 µM] | 12%
24 | COC(=O)CCC(=O)CN | -5% | 11%[12.7 µM] | -7%

item | ALDH1A1 inh | LMNA splice mod | KDM4E inh
13 | · | · | ·
14 | · | · | ·
15 | 7.1µM* | -18% | -2%
16 | · | · | ·
17 | · | · | ·
18 | · | · | ·
19 | · | · | ·
20 | 8.9µM* | · | ·
21 | · | · | ·
22 | · | · | ?
23 | 13% | 12% | 3%
24 | 2% | ? | 28µM*

Following part:
item | canonical_smiles | miR-21 reporter | G9a inh | Sfp inh
25 | O=C1CCN(S(=O)(=O)c2ccccc2)N1 | -4% | 11µM* | 8%
26 | COc1ccc(OC)c(NC(=O)NNS(=O)(=O)c2ccc(C)cc2C)c1 | 0% | 30% | 12%
27 | O=S(=O)(NCCc1ccccc1)c1cccc(S(=O)(=O)N2CCOCC2)c1 | -6% | -14%[59 µM] | 19%
28 | O=C(NCCC1=CCCCC1)c1ccc(Cl)c(S(=O)(=O)N2CCOCC2)c1 | 1% | -2%[12.7 µM] | 12%
29 | O=S(=O)(NCCC1=CCCCC1)c1cccc(S(=O)(=O)N2CCOCC2)c1 | 5% | ? | 14%
30 | Cc1ccc(C)c(S(=O)(=O)N2CCCOC2CNC(=O)C(=O)NCc2ccccn2)c1 (stereo not drawn) | -1% | · | -5%
31 | CN1CCN(NS(=O)(=O)c2ccc(Cl)cc2)CC1 | 1% | 1.1µM* | 2%
32 | CN1CCN(c2ccc(NS(=O)(=O)c3ccc(Cl)cc3)cn2)CC1 | -3% | ? | -12%
33 | Cc1ccc(Cl)cc1N1CCN(C(=O)CCCCCn2c(=O)[nH]c3ccccc3c2=O)CC1 | 27% | 1%[59 µM] | ·
34 | CCCc1nc2oc3c(OC)ncnc3c2c2c1COC(C)(C)C2 | 0% | 15%[59 µM] | 16%
35 | O=C(C1=C[C@@H]2[C@H]3C(=O)N(c4ccc(Cl)cc4)C(=O)[C@H]3[C@@H](C(=O)c3ccc(Cl)cc3)N2C=C1)c1ccccc1 | -1% | ? | -3%
36 | Cc1ccc(N2C(=O)C3C(C2=O)C(C(=O)c2ccc(Cl)cc2)N2CCCC32)cc1 (stereo not drawn) | -5% | ? | ?

item | ALDH1A1 inh | LMNA splice mod | KDM4E inh
25 | 3% | 1% | -9%
26 | · | · | ·
27 | -4% | -11% | 2%
28 | 13µM* | ? | 3%
29 | 10µM* | ? | 4%
30 | · | · | ·
31 | · | · | ·
32 | 1% | · | -2%
33 | · | ? | ·
34 | 0.89µM* | 14% | 5%
35 | 14µM* | -9% | 6%
36 | ? | -25% | ?

Next part:
item | canonical_smiles | miR-21 reporter | G9a inh | Sfp inh
37 | CCc1ccc(C=NC23CN4CN(CN(C4)C2)C3)s1 | -5% | -1%[59 µM] | 18%
38 | N#CC1=C(N)OC2=C(CCC/C2=C/c2ccoc2)C1c1ccoc1 (stereo not drawn) | -38% | 16µM* | 40µM*
39 | COc1ccc(OC)c(NC(=O)c2nnn(CC(=O)Nc3ccc(C(C)C)cc3)c2N)c1 | 0% | -36%[59 µM] | ·
40 | O=C1NC2=C(CCc3ccccc32)C(c2ccc(Br)cc2)N1 (stereo not drawn) | -8% | 35µM* | -22%
41 | CC(C)(C)OC(=O)N[C@H](/C=C/c1ccccc1)C(=O)OC(C)(C)C | · | 6%[0.501 µM] | ·
42 | CO[C@@H]1COC(=O)CCC[C@@H](C)[C@H](OC)COC(=O)[C@H](Cc2ccccc2)NC(=O)C/C=C\[C@H]1C | · | · | 11%
43 | CO[C@H]1COC(=O)[C@H](C)COC(=O)[C@@H](Cc2ccccc2)NC(=O)C/C=C\[C@H]1C | · | · | -12%
44 | CCc1ccc(C2NC(=S)NC3=C2C(=O)CC(C)(C)C3)cc1 (stereo not drawn) | -6% | -26% | -1%
45 | CCc1ccc(C2NC(=S)NC3=C2C(=O)CCC3)cc1 (stereo not drawn) | -5% | 7% | 11%
46 | CC(C)c1ccc(C2NC(=S)NC3=C2C(=O)CC(C)(C)C3)cc1 (stereo not drawn) | -10% | 5% | -12%
47 | Cc1cc(N2CCCCC2)nc(SCc2ccc(C#N)cc2)n1 | -17% | 7%[59 µM] | ?

item | ALDH1A1 inh | LMNA splice mod | KDM4E inh
37 | 7.9µM* | -14% | 9%
38 | ? | 2% | 25µM*
39 | · | ? | ·
40 | ? | 8% | ?
41 | · | · | ·
42 | 0.016µM* | · | ·
43 | 3%[13.5 µM] | · | ·
44 | 2.5µM* | -13% | ?
45 | ? | -10% | 1%
46 | 2µM* | ? | -2%
47 | 1.3µM* | ? | -2%

Screens (PubChem BioAssay)
